The record followed here is patent US20120082677A1, “COMPOSITIONS FOR THE TREATMENT OF HCV AND HBV” (priority 2010, published 2012).

The series in a line: Experiment 7 (second): injection in white mice for about 15 days. It counts as in vivo. The note with it: 5 per group, injected for about 15 days. How it is done: Experimental animals: We classified 20 white mice in 4 groups every group has 5 mice. Every component of the mixture (antistreptolysin antibodies; antistreptokinase antibodies; and tranexamic acid) is injected separately in the 1st, 2nd and 3rd groups while the 4th group is injected with the mixture of the three components, for about 15 days for all group.

Consider `NC[C@H]1CC[C@H](C(=O)O)CC1` [tranexamic acid], for which the “side effects or toxic effects” value is recorded as “No side effects or toxic effects were detected”.
